The record followed here is patent US20060211651A1, “Persulfated oligosaccharide acting on selectins and chemokine” (Taisho Pharmaceutical Co., Ltd., priority 2002, published 2006).

The target in one assay is T1, monomeric P-selectin (Homo sapiens, UniProt P16109).
T1 construct: purchased Genzyme-Techne
T1 sequence (P16109 42-771 limits assumed): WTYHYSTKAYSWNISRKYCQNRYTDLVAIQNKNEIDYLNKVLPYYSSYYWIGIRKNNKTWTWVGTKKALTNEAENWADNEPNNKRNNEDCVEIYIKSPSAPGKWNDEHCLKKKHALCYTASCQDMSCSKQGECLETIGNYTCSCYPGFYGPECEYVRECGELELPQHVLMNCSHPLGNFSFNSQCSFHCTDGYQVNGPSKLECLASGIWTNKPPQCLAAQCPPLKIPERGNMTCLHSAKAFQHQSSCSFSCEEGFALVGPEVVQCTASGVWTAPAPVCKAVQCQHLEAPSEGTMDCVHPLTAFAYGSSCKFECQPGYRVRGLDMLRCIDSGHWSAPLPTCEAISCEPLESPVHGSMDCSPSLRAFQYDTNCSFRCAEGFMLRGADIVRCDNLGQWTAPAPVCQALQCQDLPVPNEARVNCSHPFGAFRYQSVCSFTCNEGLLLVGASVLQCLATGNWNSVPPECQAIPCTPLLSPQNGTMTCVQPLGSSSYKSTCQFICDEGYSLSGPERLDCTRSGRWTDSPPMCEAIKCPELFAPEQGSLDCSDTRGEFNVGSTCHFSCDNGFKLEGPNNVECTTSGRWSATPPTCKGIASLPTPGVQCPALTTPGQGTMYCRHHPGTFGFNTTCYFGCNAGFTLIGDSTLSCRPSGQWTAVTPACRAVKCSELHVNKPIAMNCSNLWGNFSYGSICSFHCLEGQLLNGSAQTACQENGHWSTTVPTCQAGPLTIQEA
Kind of assay: BIAcore surface plasmon resonance, immobilized glycosaminoglycan vs monomeric P-selectin. The note with it: GAG immobilized, 25° C. The format is binding. The protocol: (§1) Affinity kinetics of the interaction between various CS/DS chains and each of L-selectin, P-selectin, CD44 and chemokine were examined by surface plasmon resonance using BIAcore™ biosensor [manufactured by BIAcore AB].
(§2) All experiments were performed at 25° C. At stages of washing and dissociation, buffer C (20 mM HEPES-NaOH, 0.15M NaCl, 1 mM CaCl2, 1 mM MgCl2, pH6.8) was used as a running buffer.
(§3) First, about 1.8 to 2.0 kiloresonance unit (1 kiloresonance unit=1 ng/mm^2) of streptavidin were covalently immobilized onto B1 sensor chip via a primary amine group using an amine coupling kit [manufactured by Amercham-Bioscience] according to the instruction provided by the manufacturer. […]
(§4) Binding assay was performed by injecting continuously each of various concentrations of secondary lymphoid tissue chemokine, γ-interferon inducible protein-10, stromal cell-derived factor-1β, monomeric L-selectin [manufactured by Genzyme-Techne], monomeric P-selectin [manufactured by Genzyme-Techne] and monomeric CD44, to a glycosaminoglycan-coupled sensor tip at a flow rate of 30 μl/min for 0 to 90 seconds, and then injecting a running buffer thereto. A response in resonance unit was recorded as a function of a time. […]
(§5) An affinity kinetic parameter was determined by BIAevaluation 3.0 software [manufactured by Pharmacia Biosensor] using a single site binding model. […]

For a further assay, the target named is T2, monomeric L-selectin (Homo sapiens, UniProt P14151).
T2 construct: purchased Genzyme-Techne
T2 sequence (P14151 39-332 limits assumed): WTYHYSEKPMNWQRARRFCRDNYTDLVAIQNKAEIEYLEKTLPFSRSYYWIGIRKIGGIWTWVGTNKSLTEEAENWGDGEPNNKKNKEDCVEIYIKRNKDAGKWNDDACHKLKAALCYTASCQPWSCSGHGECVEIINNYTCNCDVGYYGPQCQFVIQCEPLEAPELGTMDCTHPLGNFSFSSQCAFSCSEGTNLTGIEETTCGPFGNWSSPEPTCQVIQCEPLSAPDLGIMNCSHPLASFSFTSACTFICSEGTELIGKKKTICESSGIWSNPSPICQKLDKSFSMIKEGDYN
As to the kind of experiment: BIAcore surface plasmon resonance, immobilized glycosaminoglycan vs monomeric L-selectin. The format is binding. The note with it: GAG immobilized, 25° C. As for the experimental part: as §1, §2, §3, §4, §5

For the substance dermatan polysulfate [DPS], the results for the Kd at monomeric P-selectin and on monomeric L-selectin were 27.7 nM and 21.1 nM, respectively.
